Measured values taken from patent US6303761A, “Triaminepentaacetic acid compound and paramagnetic metal complex prepared from using the compound as ligand” (Department of Health The Executive Yuan, Republic of China, priority 1999, dated 2001).

What was measured:
[1] = 25.0 ± 0.1° C., aqueous Me4 NNO3, I = 0.10 mol dm^-3
physchem = settings: 25.0 ± 0.1° C., aqueous Me4 NNO3, I = 0.10 mol dm^-3
[2] = assay type: physicochemical; settings: pH 7.4
[3] = Selectivity constant of the ligand for Gd^3+ over Cu^2+; assay type: physicochemical
[4] = Selectivity constant of the ligand for Gd^3+ over Ca^2+; assay type: physicochemical
[5] = 25.0 ± 0.1° C., aqueous Me4 NNO3, I = 0.10 mol dm^-3; remark: listed apart in the source
[6] = 25.0 ± 0.1° C., aqueous Me4 NNO3, I = 0.10 mol dm^-3; remark: listed apart in the source
[7] = 25.0 ± 0.1° C., aqueous Me4 NNO3, I = 0.10 mol dm^-3; remark: listed apart in the source
[8] = Selectivity constant of the ligand for Gd^3+ over Zn^2+; assay type: physicochemical

Q: Which results are given for `O=C(O)CN(CCN(CC(=O)O)CC(=O)O)CCN(CC(=O)O)CC(=O)O` [DTPA, diethylenetriaminepentaacetic acid, reference compound]?
A: log K [GdL]/[Gd][L] [1]: 22.46; pKa (physchem; aqueous me4nno3, first protonation constant log K1^H, [HL]/[L][H]): 10.5; pKa (physchem; aqueous me4nno3, fourth protonation constant log K4^H, [H4 L]/[H3 L][H]): 2.64; pKa (physchem; aqueous me4nno3, second protonation constant log K2^H, [H2 L]/[HL][H]): 8.6; pKa (physchem; aqueous me4nno3, third protonation constant log K3^H, [H3 L]/[H2 L][H]): 4.28; modified selectivity constant log K sel' [2]: 7.07; selectivity constant log K(Gd/Cu) [3]: 1.08; selectivity constant log K(Gd/Ca) [4]: 11.71; log K [CuL]/[CuL][H] [5]: 4.81; log K [CuL]/[Cu][L] [5]: 21.38; log K [ZnHL]/[ZnL][H] [6]: 5.60; log K [ZnL]/[Zn][L] [6]: 18.70; log K [CaHL]/[CaL][H] [7]: 6.11; log K [CaL]/[Ca][L] [7]: 10.75; selectivity constant log K(Gd/Zn) [8]: 3.76
